{
  "source": "paper PMC2195672",
  "about": "(The Journal of Experimental Medicine, 1999)",
  "test_system": "HBV epitope-specific CTL lines",
  "type": "cell-based",
  "settings": "two CTL lines from HHD-transgenic mice; synthetic peptides; data not shown",
  "data": [
    {"sequence": "FLPSDFFPSV [core 18-27]", "values": [
      {"measurement": "Efficiency of CTL recognition relative to peptide 17-27", "result": 10, "unit": "fold"}
    ]}
  ]
}
